Experimental data as given in BindingDB's records for doi:10.1021/jm9905054 (Eisai, 2000).
pIC50: −log10 of the molar value.

Experiment: 50% inhibitory concentration against phosphodiesterase 5 (PDE5) from porcine platelets

pIC50: 8.43
Compound: O=C(O)C1CCN(c2nc(NCc3ccc4c(c3)OCO4)c3cc(Cl)ccc3n2)CC1 [Sodium; 1-{4-[(benzo[1,3]dioxol-5-ylmethyl)-amino]-6-chloro-quinazolin-2-yl}-piperidine-4-carboxylate]
